Test results: patent US8877779B2 (priority 2007, dated 2014)

Sequences of proteins named here, by UniProt entry; tags and fusion partners are left off.
UniProt P41146, whole entry: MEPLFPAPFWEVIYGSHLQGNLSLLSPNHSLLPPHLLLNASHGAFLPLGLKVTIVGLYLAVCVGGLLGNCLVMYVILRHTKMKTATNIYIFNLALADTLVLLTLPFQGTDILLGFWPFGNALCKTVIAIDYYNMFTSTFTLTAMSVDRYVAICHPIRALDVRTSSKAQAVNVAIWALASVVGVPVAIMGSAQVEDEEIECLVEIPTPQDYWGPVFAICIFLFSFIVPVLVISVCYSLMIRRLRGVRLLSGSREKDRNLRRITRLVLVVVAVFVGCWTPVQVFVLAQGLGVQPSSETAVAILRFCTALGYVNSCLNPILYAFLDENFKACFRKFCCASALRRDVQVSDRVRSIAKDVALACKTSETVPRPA

Target: human ORL-1 receptor (Homo sapiens, UniProt P41146)
Test: ORL-1 receptor-binding test ([3H]-nociceptin)
Settings: read-out: Affinity Ki (nM) ORL-1, membrane of HEK293 cell expressing human ORL-1 receptor
Procedure: Using a receptor membrane product prepared from HEK293 cell forcively expressing human ORL-1 receptor, a [^3H]-nociceptin binding test was performed. To be specific, a test substance solution (50 μL) having various concentrations, a receptor product solution (900 μL) and a labeled ligand [^3H]-nociceptin (50 μL) were successively added to a polypropylene tube and reacted at 25° C. for 60 min. The reaction mixture was filtered by suction in a cell harvester using a glass filter Whatman GF/B. The filter was washed 3 times with ice-cooled 50 mmol/L HEPES buffer, and placed in a measurement vial. A liquid scintillation cocktail ACS-II (Amersham) (2 mL) was added, and the radiation dose was measured by a liquid scintillation counter (LSC-5100, Aloka). The non-specific binding level was determined using an unlabeled ligand naltrexone. The binding inhibitory rate (%) and inhibitory constant (Ki value) were calculated according to the following calculation formula. binding inhibitory rate (%)={1−(B−N)/(T−N)}×100 N: non-specific binding level, T: total binding level, B: binding level in the presence of a test substance inhibitory constant (Ki value)=IC50/(1+L/Kd) IC50: 50% inhibitory concentration, L: labeled ligand concentration, Kd: dissociation constant of labeled ligand

CNC(=O)Cn1c(=O)n(C2CCN(C3CCCc4c(C)cccc43)CC2)c2ccccc21 (stereo not shown)
Ki: < 10 nM
